Measured values taken from EP1816136A1, “GPR7-SELECTIVE LIGAND AND USE THEREOF” (BANYU PHARMACEUTICAL CO., LTD., priority 2004, dated 2006).

By UniProt entry, the sequences of proteins in these tests, tags left out. Where a name states a change or a piece, a line headed by the entry shows the natural chain unless it says otherwise.
UniProt P48146: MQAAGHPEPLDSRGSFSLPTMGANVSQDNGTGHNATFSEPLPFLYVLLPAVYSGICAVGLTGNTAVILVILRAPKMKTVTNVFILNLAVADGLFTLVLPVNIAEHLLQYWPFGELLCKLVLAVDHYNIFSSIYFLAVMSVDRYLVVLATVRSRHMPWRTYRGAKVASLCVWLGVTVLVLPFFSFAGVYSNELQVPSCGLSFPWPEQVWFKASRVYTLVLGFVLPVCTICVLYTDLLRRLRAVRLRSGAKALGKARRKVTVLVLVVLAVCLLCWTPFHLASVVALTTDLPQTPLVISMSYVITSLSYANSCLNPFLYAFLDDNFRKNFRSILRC

Legend:
[1] = molecular target: T1, GPR7 (Homo sapiens, UniProt P48145); experiment: Binding inhibition test with [125I]-[Phe2]-hNPW(1-23), GPR7 membrane preparation; details: Table 2, membrane preparation of cells expressing GPR7
T1 construct: expressed in transfected cells; host or cells: HEK293/CRE-BLA cells (AURORA), expression vector pIRES-hygro (Clontech)
T1 sequence (P48145 1-328): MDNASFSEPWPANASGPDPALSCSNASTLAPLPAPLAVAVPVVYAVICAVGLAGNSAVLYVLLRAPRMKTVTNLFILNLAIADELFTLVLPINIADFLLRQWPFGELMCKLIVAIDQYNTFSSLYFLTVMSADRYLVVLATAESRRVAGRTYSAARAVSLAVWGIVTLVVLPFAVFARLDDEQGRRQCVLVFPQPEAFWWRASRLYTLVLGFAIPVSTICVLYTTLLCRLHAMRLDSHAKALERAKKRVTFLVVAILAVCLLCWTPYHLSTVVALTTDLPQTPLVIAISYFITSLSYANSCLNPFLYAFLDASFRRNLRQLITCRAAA
Description: (§1) One nmol of [Phe2]-hNPW(1-23) (prepared in Synthesis Example 19) was dissolved in 5 µL of anhydrous DMSO, and the solution was mixed with 0.1M nickel chloride. Then, the mixture was mixed with 10 µL of a 0.00 1 % aqueous solution of hydrogen peroxide, 10 µL of an enzyme solution (lactoperoxidase (Sigma) adjusted to 10 µg/mL with a 0.1M HEPES buffer solution), and 37 Mbq/10 µL of Iodine-125 (Amersham), whereafter the resulting mixture was reacted for 60 minutes at room temperature. The reaction was terminated with the addition of 10 µL of 1% sodium azide, and then a radiolabeled peptide fraction was collected by a PD-10 gel filtration column (Amersham) to obtain [^125I]-[Phe2]-hNPW(1-23).
(§2) A cDNA sequence coding for human GPR7 or GPR8 [see Genomics, vol. 28, p. 84 (1995)] was amplified by the PCR method, and cloned using the expression vector pIRES-hygro (Clontech). […]
(§3) A membrane preparation prepared from the cells expressing GPR7 or GPR8 was incubated for 1 hour at room temperature in an assay buffer solution (25 mM Tris buffer solution, 150 mM NaCl, pH 7.4) together with a test compound and 28,000 cpm of [^125I]-[Phe2]-hNPW(1-23). […] After washing with 25 mM Tris buffer solution (pH 7.4), radioactivity on the glass filter was measured. […]

[2] = molecular target: T2, GPR8 (Homo sapiens, UniProt P48146); experiment: Binding inhibition test with [125I]-[Phe2]-hNPW(1-23), GPR8 membrane preparation; details: Table 2, membrane preparation of cells expressing GPR8
T2 construct: expressed in transfected cells; host or cells: HEK293/CRE-BLA cells (AURORA), expression vector pIRES-hygro (Clontech)
Description: as §1, §2, §3

IC50 [1]: 0.36 nM | IC50 [2]: 0.043 nM
SMILES: CSCC[C@H](NC(=O)[C@H](CC(C)C)NC(=O)[C@H](CC(C)C)NC(=O)CNC(=O)[C@H](C)NC(=O)[C@H](C)NC(=O)[C@H](CCCNC(=N)N)NC(=O)CNC(=O)[C@@H](NC(=O)[C@@H](NC(=O)[C@H](Cc1cnc[nH]1)NC(=O)[C@H](Cc1ccc(O)cc1)NC(=O)[C@H](CCCNC(=N)N)NC(=O)[C@@H]1CCCN1C(=O)[C@H](CO)NC(=O)[C@H](C)NC(=O)[C@@H](NC(=O)[C@H](Cc1cnc[nH]1)NC(=O)[C@H](CCCCN)NC(=O)[C@H](Cc1ccc(O)cc1)NC(=O)[C@@H](N)Cc1c[nH]c2ccccc12)C(C)C)[C@@H](C)O)C(C)C)C(=O)NCC(=O)N[C@@H](CC(C)C)C(=O)N[C@@H](CCCNC(=N)N)C(=O)N[C@@H](CCCNC(=N)N)C(=O)N[C@@H](CO)C(=O)N1CCC[C@H]1C(=O)N[C@@H](Cc1ccc(O)cc1)C(=O)N[C@@H](CC(C)C)C(=O)N[C@@H](Cc1c[nH]c2ccccc12)C(=O)O [Synthesis Example 1, reference compound]
